Measurements published in patent US20080103209A1, “Compounds And Methods For Treating Non-Inflammatory Pain Using Ppar Alpha Agonists” (The Regents of The University of California, priority 2004, published 2008).

Experiment: Skin PEA concentration after topical application (HPLC/MS)
Conditions: PEA 450 μg topical, n=5

PEA skin concentration after topical application: 250.2 ± 22.4 nmol/g
Structure (SMILES): CCCCCCCCCCCCCCCC(=O)NCCO [PEA, palmitoylethanolamide]
